By UniProt entry, the sequences of proteins in these tests, tags left out.
UniProt P10635, whole entry: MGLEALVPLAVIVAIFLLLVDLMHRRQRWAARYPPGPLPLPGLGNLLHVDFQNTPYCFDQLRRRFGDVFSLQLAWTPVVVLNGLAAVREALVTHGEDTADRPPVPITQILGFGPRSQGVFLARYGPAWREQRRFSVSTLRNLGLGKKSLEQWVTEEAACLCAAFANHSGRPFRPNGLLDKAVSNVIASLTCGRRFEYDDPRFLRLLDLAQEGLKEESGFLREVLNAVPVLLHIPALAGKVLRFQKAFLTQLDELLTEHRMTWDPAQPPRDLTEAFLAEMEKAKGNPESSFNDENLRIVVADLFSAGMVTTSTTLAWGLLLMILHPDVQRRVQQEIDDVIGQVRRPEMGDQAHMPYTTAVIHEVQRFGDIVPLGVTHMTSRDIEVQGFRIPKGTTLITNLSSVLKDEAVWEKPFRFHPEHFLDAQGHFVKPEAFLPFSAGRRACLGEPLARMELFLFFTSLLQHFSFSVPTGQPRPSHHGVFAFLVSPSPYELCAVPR
UniProt P11712, whole entry: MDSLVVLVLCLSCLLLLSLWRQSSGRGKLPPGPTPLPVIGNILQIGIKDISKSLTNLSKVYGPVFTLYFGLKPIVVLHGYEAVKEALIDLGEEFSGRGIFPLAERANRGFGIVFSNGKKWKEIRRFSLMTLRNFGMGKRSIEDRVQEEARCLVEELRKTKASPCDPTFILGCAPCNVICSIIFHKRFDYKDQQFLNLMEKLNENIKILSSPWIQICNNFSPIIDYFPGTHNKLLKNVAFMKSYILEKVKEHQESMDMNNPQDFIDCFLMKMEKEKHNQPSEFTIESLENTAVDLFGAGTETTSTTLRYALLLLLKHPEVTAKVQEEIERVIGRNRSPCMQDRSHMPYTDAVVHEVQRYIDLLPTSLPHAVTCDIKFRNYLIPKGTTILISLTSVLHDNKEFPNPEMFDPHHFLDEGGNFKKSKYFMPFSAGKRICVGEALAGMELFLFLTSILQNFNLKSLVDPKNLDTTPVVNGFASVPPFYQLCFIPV
UniProt P08684, whole entry: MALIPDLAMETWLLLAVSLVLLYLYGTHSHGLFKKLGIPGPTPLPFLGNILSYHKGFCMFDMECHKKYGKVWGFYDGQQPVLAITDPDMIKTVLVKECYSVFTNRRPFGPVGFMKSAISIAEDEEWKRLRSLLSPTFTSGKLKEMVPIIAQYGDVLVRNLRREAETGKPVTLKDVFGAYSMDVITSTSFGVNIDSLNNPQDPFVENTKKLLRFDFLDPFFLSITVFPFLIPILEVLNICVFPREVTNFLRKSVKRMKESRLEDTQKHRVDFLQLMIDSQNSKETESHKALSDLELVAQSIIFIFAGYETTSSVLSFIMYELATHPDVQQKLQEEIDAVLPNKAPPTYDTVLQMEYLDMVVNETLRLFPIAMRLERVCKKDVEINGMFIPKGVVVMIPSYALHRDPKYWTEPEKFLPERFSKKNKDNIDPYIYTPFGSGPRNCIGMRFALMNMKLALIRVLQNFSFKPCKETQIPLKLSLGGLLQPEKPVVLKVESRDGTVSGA
UniProt P33261, whole entry: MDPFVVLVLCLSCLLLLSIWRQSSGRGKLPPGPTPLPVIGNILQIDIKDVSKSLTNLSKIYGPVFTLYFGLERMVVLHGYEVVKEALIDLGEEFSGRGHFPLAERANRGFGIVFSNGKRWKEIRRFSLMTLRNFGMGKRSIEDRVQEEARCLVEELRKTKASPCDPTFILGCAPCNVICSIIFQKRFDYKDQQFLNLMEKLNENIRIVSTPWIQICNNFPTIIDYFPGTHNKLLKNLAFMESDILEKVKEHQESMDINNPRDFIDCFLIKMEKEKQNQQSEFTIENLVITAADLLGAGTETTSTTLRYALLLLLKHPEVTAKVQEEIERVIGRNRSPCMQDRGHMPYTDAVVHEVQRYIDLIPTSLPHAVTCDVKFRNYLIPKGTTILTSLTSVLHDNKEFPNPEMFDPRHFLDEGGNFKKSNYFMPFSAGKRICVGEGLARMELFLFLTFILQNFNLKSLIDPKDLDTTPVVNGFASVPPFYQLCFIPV
UniProt P05177, whole entry: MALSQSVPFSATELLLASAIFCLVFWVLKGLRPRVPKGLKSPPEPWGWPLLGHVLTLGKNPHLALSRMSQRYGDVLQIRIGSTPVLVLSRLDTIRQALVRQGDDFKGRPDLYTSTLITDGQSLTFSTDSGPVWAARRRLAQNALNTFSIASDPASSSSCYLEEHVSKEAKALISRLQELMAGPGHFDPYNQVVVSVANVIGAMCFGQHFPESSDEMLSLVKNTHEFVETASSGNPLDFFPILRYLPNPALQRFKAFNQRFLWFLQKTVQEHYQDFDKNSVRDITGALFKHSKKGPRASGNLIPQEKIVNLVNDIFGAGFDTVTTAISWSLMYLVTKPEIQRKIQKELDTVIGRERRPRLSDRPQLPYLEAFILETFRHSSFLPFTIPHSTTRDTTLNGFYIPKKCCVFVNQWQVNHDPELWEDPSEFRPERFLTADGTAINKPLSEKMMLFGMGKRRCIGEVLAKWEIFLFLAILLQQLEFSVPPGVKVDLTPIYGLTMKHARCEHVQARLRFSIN
UniProt P50052, whole entry: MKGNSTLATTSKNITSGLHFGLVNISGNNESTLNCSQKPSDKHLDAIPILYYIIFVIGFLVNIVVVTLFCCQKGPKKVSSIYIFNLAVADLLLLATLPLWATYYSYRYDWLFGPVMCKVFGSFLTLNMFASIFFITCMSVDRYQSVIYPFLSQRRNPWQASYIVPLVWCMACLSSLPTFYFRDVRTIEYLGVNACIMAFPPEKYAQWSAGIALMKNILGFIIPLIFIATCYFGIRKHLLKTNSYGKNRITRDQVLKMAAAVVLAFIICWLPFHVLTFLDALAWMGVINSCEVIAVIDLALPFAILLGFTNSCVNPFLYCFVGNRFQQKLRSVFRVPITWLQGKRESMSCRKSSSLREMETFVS

According to patent publication US11021445B2, “Carboxylic acid derivative as AT2R receptor antagonist” (SHANDONG DANHONG PHARMACEUTICAL CO., LTD., priority 2017, dated 2021):

Legend:
Caco-2 cells = test: Two-way permeability study in Caco-2 cells
CYP2D6 = CYP2D6 (Homo sapiens, UniProt P10635); test: Human liver microsome CYP inhibition experiment; assay type: in vitro ADME; settings: read-out: Cytochrome P450 isoenzyme IC50 2D6; pooled human liver microsomes
Protocol: (§1) The research project used a specific probe substrate for each isoenzyme to evaluate the inhibitory effect of the test compound on human liver microsomal cytochrome P450 isoenzymes (CYPIA2. CYP2C9, CYP2C19, CYP2D6, and CYP3A4). Mixed human liver microsomes (pooled HLM, n≥50) were purchased from Corning Inc. (Steuben, N.Y., USA) or other qualified suppliers, and were stored in a refrigerator below −60° C. before use. The diluted series of to-be-tested compound working solutions were added to an incubation system containing cofactors of human liver microsomes, a probe substrate and a circulation system, and the methanol content was about 1% (v/v) of the final incubation system. A control containing no the to-be-tested compound and containing a solvent was used as a control for enzyme activity (100%). The concentration of the analyte in the sample was determined by liquid chromatography-tandem mass spectrometry (LC/MS/MS). The calculation was performed by using the average of the concentrations of the samples (a blank solvent, a positive control inhibitor, or the to-be-tested compound). Non-linear regression analysis was performed by using SigmaPlot (V.11) on the average percent activity of the compound to be tested to the concentration. The IC50 value was calculated by a three-parameter or four-parameter inflection logarithmic equation.

CYP2C9 = CYP2C9 (Homo sapiens, UniProt P11712); test: Human liver microsome CYP inhibition experiment; assay type: in vitro ADME; settings: read-out: Cytochrome P450 isoenzyme IC50 2C9; pooled human liver microsomes
Protocol: as §1

CYP3A4 = CYP3A4 (Homo sapiens, UniProt P08684); test: Human liver microsome CYP inhibition experiment; assay type: in vitro ADME; settings: read-out: Cytochrome P450 isoenzyme IC50 3A4; pooled human liver microsomes
Protocol: as §1

CYP2C19 = CYP2C19 (Homo sapiens, UniProt P33261); test: Human liver microsome CYP inhibition experiment; assay type: in vitro ADME; settings: read-out: Cytochrome P450 isoenzyme IC50 2C19; pooled human liver microsomes
Protocol: as §1

CYP1A2 = CYP1A2 (Homo sapiens, UniProt P05177); test: Human liver microsome CYP inhibition experiment; assay type: in vitro ADME; settings: read-out: Cytochrome P450 isoenzyme IC50 CYP1A2; pooled human liver microsomes
Protocol: as §1

[1] = Determination of kinetic solubility; settings: pH 7.4, 24 hours at room temperature, theoretical maximum 200 μM
SD Rat Plasma = test: Plasma protein binding rate (PPB) test, equilibrium dialysis; settings: 4 hours, 37°C
human plasma = test: as above; settings: 4 hours, 37°C
hAT2 = hAT2 (Homo sapiens, UniProt P50052); test: hAT2 receptor binding assay (SPA, [125I]-Sar1-Ile8-Angiotensin II); settings: read-out: hAT2 IC50; membrane of HEK-293 cells overexpressing hAT2; 0.1 nM 125I ligand

Compound | Efflux ratio (Caco-2 cells) | Papp (AB) (Caco-2 cells; A-B direction, 120 minutes) | Papp (BA) (Caco-2 cells; B-A direction, 120 minutes) | IC50 (CYP2D6) [µM] | IC50 (CYP2C9) [µM] | IC50 (CYP3A4) [µM] | IC50 (CYP2C19) [µM] | IC50 (CYP1A2) [µM] | Solubility @pH = 7.4 [1] [μM] | Plasma Protein Binding (%) SD Rat Plasma (SD Rat Plasma) [%] | Plasma Protein Binding (%) Human Plasma (human plasma) [%] | IC50 (hAT2) [µM]
Cc1ccc2c(c1OCc1ccccc1)C[C@@H](C(=O)O)N(C(=O)[C@@H](OC1CCCC1)c1ccccc1)C2 | 12.6 | 1.15 10^−6 cm/s | 14.56 10^−6 cm/s | > 50 | 16 | > 50 | > 50 | > 50 | >200.0 | 99.9 | 99.8 | 0.004
Cc1ccc2c(c1OCc1ccccc1)C[C@H](C(=O)O)N(C(=O)[C@@H](OC1CCCC1)c1ccccc1)C2 | – | – | – | – | – | – | – | – | – | – | – | 0.27
